This assay has as its target T1, A2BAR (Homo sapiens, UniProt P29275).
T1 sequence (P29275 1-332): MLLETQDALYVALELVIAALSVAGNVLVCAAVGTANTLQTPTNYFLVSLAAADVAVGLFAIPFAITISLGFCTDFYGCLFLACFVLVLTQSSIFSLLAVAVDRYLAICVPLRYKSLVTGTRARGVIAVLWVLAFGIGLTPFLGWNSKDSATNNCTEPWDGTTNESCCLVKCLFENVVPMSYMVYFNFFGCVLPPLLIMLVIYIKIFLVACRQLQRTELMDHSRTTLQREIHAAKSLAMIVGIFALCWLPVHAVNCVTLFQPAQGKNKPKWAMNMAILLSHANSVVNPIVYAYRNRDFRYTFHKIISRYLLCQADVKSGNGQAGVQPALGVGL
Description: cAMP accumulation assay in HEK293-A2B cells.

The structures appear in SMILES notation.

As for `CCCn1c(=O)c2[nH]c(-c3ccc(OCC(=O)Nc4ccc(C#N)cc4)cc3)nc2n(CCC)c1=O` [MRS1754], the IC50 amounted to 513 ± 207 nM and the Kb was determined as 3.3 nM.

Source of the values: article PMC10316653 (iScience, 2023).
